Values quoted from earlier work as cited in patent US5565616A (priority 1994, dated 1996).
Where two headings read alike, the source gives them in different places.

Experiments:
[1] = cited from earlier work
[2] = water, cited from earlier work

## Mg(OH)2
[1]; 24.0 MPa, 440 °C
  Solubility: 0.02 mg/L
[2]; 100 °C
  Solubility: 40 mg/L

## Na2 SO4
[1]; 27.4 MPa, 350 °C
  Solubility: 70,000 mg/L
[1]; 29.8 MPa, 407 °C
  Solubility: 136 mg/L
[1]; 30.0 MPa, 450 °C
  Solubility: 0.02 mg/L
[2]; 100 °C
  Solubility: 283,000 mg/L

## Na3 PO4.12H2 O
[2]; 70 °C
  Solubility: 1,570,000 mg/L

## NaNO3
[1]; 27.6 MPa, 450 °C
  Solubility: 991 mg/L
[1]; 27.6 MPa, 475 °C
  Solubility: 630 mg/L
[1]; 27.6 MPa, 500 °C
  Solubility: 540 mg/L
[2]; 25 °C
  Solubility: 921,100 mg/L
[2]; 100 °C
  Solubility: 1,800,000 mg/L
